The list shows a part of the results, in another mix than the full data. Records with an inconclusive call do not appear. Active and inactive are the calls of the source. The call rests on the fitted dose curve; in most records, active means well fitted inhibition curve with a large enough effect; inconclusive means small, poorly fitted or top-dose-only effect; inactive means no such curve, though single readings can be large or run the other way.

The nature of this assay: Primary qHTS assay for Inhibitors of ovarian cancer metastasis using an organotypic tumor microenvironment (TME) model. Further: nearly all actives have a fitted effect of over 65% in size. Particulars: SKOV3ip1-GFP adhesion/invasion on 3D omental model, fluorescence; activity change, negative = inhibition: at 45.8 µM (top of the series). From the text:
PI: Ernst Lengyel MD., Ph.D. Department of Obstetrics and Gynecology, Section of Gynecologic Oncology University of Chicago Medicine, Chicago, Illinois. The tumor microenvironment (TME) is a key determinant of metastatic efficiency. We performed a quantitative high-throughput screen (qHTS) of diverse medicinal chemistry tractable scaffolds (44,420 compounds) and pharmacologically active small molecules (386 compounds) using a layered organotypic, robust assay representing the ovarian cancer metastatic TME. This 3D model contains primary human mesothelial cells, fibroblasts, and extracellular matrix, to which fluorescently labeled ovarian cancer cells are added. Initially, 100 compounds inhibiting ovarian cancer adhesion/invasion to the 3D model in a dose-dependent manner were identified. Of those, eight compounds were confirmed active in five high-grade serous ovarian cancer cell lines and were further validated in secondary in vitro and in vivo biological assays. […] Specifically, NCGC00117362 and PP-121 inhibited ovarian cancer adhesion, invasion, and proliferation, whereas milciclib inhibited ovarian cancer invasion and proliferation. […] To evaluate the clinical potential of NCGC00117362, structure - activity relationship studies were performed. […] The three compounds identified have promise as therapeutics for prevention and treatment of ovarian cancer metastasis.
PROTOCOL TABLE (as described by Inglese J, Shamu CE and Guy RK. 2007) SEQUENCE No. (e.g., 1, 2, 3, etc.); […] (e.g., Cells, Incubation, Reagent, etc.); VALUE; DESCRIPTION. 1; Cells; 4 uL; primary human omental fibroblast, black, clear bottom, low base, 1536-well Aurora assay plate. 2; Incubation; 48 hr; 37C. 3; Cells; 3 uL; 1,200 SKOV3ip1-GFP cells. 4; Compounds; 23nL; acoustic dispenser. 5; Incubation; 2 hr; room temperature. 6; Incubation; 16 hr; 37C. 7; Wash; 5 uL; 1x PBS. 8; Fixing; 5 uL; 4% paraformaldehyde (PFA). 9; Incubation; 15 min; room temperature 10; Wash, 5 uL; 1x PBS. 11; Detection; Fluorescence, excitation filter 488 nm, emission filter 509 nm. NOTES (numbers refer to Sequence numbers above) 1. For the 1,536-well format, 40 primary human omental fibroblasts and 400 mesothelial cells were seeded with 0.02 µg fibronectin and 0.02 µg collagen type I in 4 µL of growth media (2.3 mm2; Supplementary Fig. S1A). 2. Assay plates were incubated for 48 hours at 37 C. 3. After incubation, 1,200 SKOV3ip1-GFP were seeded in 3 µL of serum-free media (growth media minus FBS) on top of primary human omental cells. 4. Compounds or controls were added to each well immediately after the addition of the cancer cells. Compounds were screened in four doses (0.36-46 µmol/L), and the plates contained the positive control (Tomatine) in eight doses (0.035-75 µmol/L) and DMSO (equal volume controls) 5 - 6. The plates were incubated at room temperature for 2 hours and then at 37 degrees C for 16 hours. 7 - 10. Following incubation, the media were aspirated and each well washed with PBS (5 µL) and then fixed with 4% paraformaldehyde (PFA; 5 µL). After 15 minutes, the PFA solution was aspirated, PBS (5 µL) was added. 11. The number of GFP-labeled cells analyzed using a fluorescent cytometer TTP LabTech Acumen eX3 using 488 nm excitation filter and 509 nm emission filter. Data was normalized to the DMSO treated for negative and Tomatine treated wells for positive control. REFERENCES: Inglese J, Shamu CE and Guy RK, Reporting data from high throughput screening of small molecule libraries, Nature Chemical Biology, 2007, 3(8): 438-441. doi.org/10.1038/nchembio0807-438. Yasgar A, Shinn P, Jadhav A, Auld DS, Michael S, Zheng W, Austin CP, Inglese J and Simeonov A, Compound Management for Quantitative High-Throughput Screening. J. Assoc. Lab. Auto., 2008, 13: 79-89. doi: 10.1016/j.jala.2007.12.004.
Background: In qHTS, concentration-response curves come from the screen itself.
Turning to `O=C(NCC1(N2CCOCC2)CCCCC1)c1ccccc1Br`, the activity change, negative = inhibition entry was “inactive”.
In the case of `CCCCOc1ccccc1C(=O)NCC1(N2CCOCC2)CCCCC1` it was inactive: 0.882%; in that of `CCOc1ccc(C(=O)NCC2(N3CCOCC3)CCCCC2)cc1`, “inactive”; in that of `CCCOc1cccc(C(=O)NCC2(N3CCOCC3)CCCCC2)c1`, inactive: -9.13%.
For the compound `COc1ccccc1C(=O)NCC1(N2CCOCC2)CCCCC1`, the activity change, negative = inhibition is inactive: 20.1%.
Consider `O=C(NCC1(N2CCOCC2)CCCCC1)c1ccc(Cl)cc1`, for which the activity change, negative = inhibition is inactive: 6.11%.
As to `CCOC(=O)C(=O)CBr`, the activity change, negative = inhibition is inactive: -9.55%.
The result for `COc1cc(C(=O)NCC2(N3CCOCC3)CCCCC2)cc(OC)c1OC` reads “inactive”; that for `CN(C)C1(CNC(=O)c2ccc(C(C)(C)C)cc2)CCCCC1`, inactive: -0.441%; that for `Cc1ccccc1C(=O)NCC1(N(C)C)CCCCC1`, inactive: 3.96%.
The result for `CC(C)(C)c1ccc(C(=O)NCC2(N3CCOCC3)CCCCC2)cc1` reads inactive: 3.18%; that for `O=C(NCC1(N2CCOCC2)CCCCC1)c1ccccc1[N+](=O)[O-]`, “inactive”; that for `O=C(NCC1(N2CCOCC2)CCCCC1)c1ccc([N+](=O)[O-])cc1`, “inactive”.
The result for `O=C(NCC1(N2CCOCC2)CCCCC1)c1ccccc1` reads inactive: 4.22%.

For the origin of these results see PubChem BioAssay AID1963576 (National Center for Advancing Translational Sciences (NCATS), 2024).
